Measured affinities in a library of Ab-14 light chain variants

Target: peptide PDVDLGDISGINAS, taken from heptad repeat 2 (HR2) of SARS-CoV-2 spike.

Parent: Ab-14, a human scFv built as VH, a (GGGGS)3 linker, VL. Only the CDRs of the light chain vary.
VH: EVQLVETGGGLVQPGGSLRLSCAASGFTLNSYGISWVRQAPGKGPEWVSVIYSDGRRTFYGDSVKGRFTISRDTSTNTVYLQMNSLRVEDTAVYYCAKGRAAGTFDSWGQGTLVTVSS
VL: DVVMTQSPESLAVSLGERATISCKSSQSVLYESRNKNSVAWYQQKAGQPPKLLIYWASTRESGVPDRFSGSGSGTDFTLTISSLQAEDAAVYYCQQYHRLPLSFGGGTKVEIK

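The parent was found by panning a naive human phage display library on the peptide. This is the validation round: designs drawn from the data on random variants, tested in the same kind of assay. Their group label is 14L_En_Gen (En: ensemble of fine-tuned language models; Gen: genetic algorithm). Affinity was read by AlphaSeq, a pooled yeast mating assay with surface-displayed partners. The frequency of each diploid, read from paired DNA barcodes, reflects how well the two displayed proteins bind. The ratio of observed to expected reads was calibrated, replicate by replicate, on BCL2-family standards whose Kd was known from biolayer interferometry. Mating was done six times.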

The parent's light chain CDRs are KSSQSVLYESRNKNSVA, WASTRES, QQYHRLPLS; each variant's own CDRs replace them letter for letter.
Affinities are written as log10 Kd with Kd in nM; a lower number is a better binder.
"ND" means that the variant was in the library but no mating with the target was seen in that replicate; the authors take this as a sign of poor binding, and no number exists.
Empty control strains, which show no peptide, gave a signal in 4% of pairings with all light chain designs; the median was 2.64 and 95% of these signals were weaker than 1.59. No background was subtracted. For each scFv, signals with the empty controls are counted beside the result.
The authors' rule: three or more of the six replicates give a measured affinity, fewer mean a poor binder.
Values of this round are not directly comparable with the first-round values of the same sequences.

MISHVMNTLTRNGNNVA | DLEEREN | QQYFRLPLS: ND, ND, ND, ND, ND, ND (controls 0 of 18).
KVYQGINTHLGAHSSIA | QEETRLE | QQYAHLPLS: 0.99, 0.62, 0.71, 0.80, 0.89, 0.59 (controls 1 of 18).
KVSMFMRGLMSRQDSIA | DNVTRGN | QQYDRLPLS: 1.93, 2.07, 0.98, 0.74, 1.32, 1.28 (controls 2 of 18).
TITGVMTQMSHSKNNVA | EVSERLD | QQYFRLPLE: 0.54, 0.92, 0.66, 0.78, 0.94, 1.06 (controls 1 of 18).
TISGVMQQMSHSKSNVA | EVSMRLD | QQYVRLPLA: 1.60, 1.00, 1.40, 0.40, 2.02, 1.05 (controls 0 of 18).
MISEMMHMIGAKKNSIA | DLVLRAN | QQYHRLPLS: ND, ND, 0.46, ND, 1.81, ND (controls 0 of 18).
MISNLMNMGQFAINSVA | QASIRNE | QQYDRLPLA: 0.83, 1.10, 0.76, 1.39, 1.55, 1.25 (controls 0 of 18).
HMSMLTLGGMRHKNSVA | QMTTREN | QQYDHLPLS: 0.61, 0.74, 0.63, 0.74, 0.71, 0.76 (controls 0 of 18).
KLYDMAALTMNNIRNVA | DNDTRVD | QQYHRLPLS: 0.43, 0.37, 0.48, 0.42, 0.26, 0.57 (controls 0 of 18).
KISMLINQTFQTENNVA | EMVTREK | QQYHRLPLS: 1.74, 0.95, ND, 2.63, 1.99, 2.03 (controls 0 of 18).
TISELHNQALGMRNNVA | NNQTRED | QQYARLPLS: 2.07, ND, 0.33, 1.22, ND, 1.71 (controls 1 of 18).
KIGMTLNLLYEKKNNVA | DLVMREN | QQYHRLPLS: 0.61, 0.66, 1.37, 2.23, 0.62, 0.11 (controls 1 of 18).
TISMFMDNLYSNRNNVA | DTSTLGS | QSYDRLPLS: 1.75, ND, ND, 2.36, 1.63, 2.94 (controls 0 of 18).
KISQMVKVGATHNNSIA | EEVTRAN | QQYHRLPLA: 1.59, 1.98, ND, 3.68, 1.96, ND (controls 0 of 18).
IVSQLMLVGMHAKNSIA | EASSRLN | QQYDRLPLF: ND, 0.13, 0.81, 1.53, 0.35, ND (controls 0 of 18).
KLGGTLNTEMHKKNNVA | DLVMREN | QQYFRLPLS: 1.21, 1.62, 2.44, 1.59, 1.80, 1.67 (controls 1 of 18).
HITYGMMVLGRHSKSIA | QAETRAK | QQYDRLPLA: 1.07, 1.41, 1.08, 1.27, 1.45, 1.00 (controls 0 of 18).
TISQMMQLFSQTINNVA | EVSTRLN | QQYDRLPLA: 1.36, 0.93, 2.29, 1.37, 0.65, 0.88 (controls 0 of 18).
MISQVLNTLSKTGNNVA | DLAERED | QQYFRLPLS: 1.71, 1.42, 1.24, 1.75, 1.99, 2.16 (controls 3 of 18).
QLSMLTGHVSMSKNNVA | EMETRMN | QQYDRLPLS: 0.33, 0.58, 0.40, 0.28, 0.31, 0.51 (controls 0 of 18).
MVSQLMVWGMHARNSIA | EAQTRCN | QQYDRLPLF: 0.77, 2.13, 0.93, 0.77, 1.92, 1.85 (controls 1 of 18).
SISMLLNFESKVGNNVA | QMETRVN | QQYDRLPLT: 0.49, 0.50, 0.80, 0.56, 0.86, 0.95 (controls 1 of 18).
TLGLNTMVESIKKNNVA | EMSTRMN | QQYVRLPLA: ND, ND, ND, ND, ND, ND (controls 0 of 18).
TISQVMNTLTRHGNNVA | DLAEREV | QQYFRLPLS: 0.88, 0.47, 0.57, 0.46, 0.17, 0.43 (controls 0 of 18).
KLSQITGHMSVSKNNVA | EMETRAN | QQYDRLPLA: 1.84, 0.56, 1.86, 0.90, 0.76, 0.78 (controls 0 of 18).
TISDVMGHMSKQTNNVA | DMDTRGE | QQYNRLPLS: 0.14, -0.06, -0.11, -0.20, -0.05, 0.03 (controls 1 of 18).
KIGMTLNQLMHQKNNVA | DLVMREK | QQYHRLPLS: 0.43, 0.46, 0.27, 0.60, 0.62, 0.55 (controls 0 of 18).
KLSMVTGHLSMAKYNVA | EMVTREK | QQYNRLPLS: 0.41, 0.55, 0.43, 0.76, 0.58, 0.92 (controls 1 of 18).
KIAGMSNHQESVHNNVA | ENVTRVK | QQYFRLPLS: 0.66, 0.66, 0.15, 0.45, 0.23, 0.83 (controls 1 of 18).
MFSQMTGLGMKASNSVA | QASTRFE | QQYVRLPLI: 1.25, 1.07, 0.17, 0.46, 1.03, 0.86 (controls 0 of 18).
MMSQVWGMGQRHRNNVA | QTSTRED | QQYDRLPLV: 0.81, 0.71, 0.75, 0.66, 0.66, 0.90 (controls 1 of 18).
SISGFMKSSLAHHNSVA | DMTNRED | QQYDRLPLS: -0.31, -0.25, -0.02, -0.22, 0.06, -0.25 (controls 0 of 18).
TITMFMDNLSHNRNNVA | DTSTLGS | QSYERLPLS: 1.48, 0.83, 1.70, ND, 2.50, 2.29 (controls 0 of 18).
KISMLSENELKNRNSVA | ELVTRMN | QQYNRLPLS: 0.27, 0.36, 0.67, 0.66, 0.41, 0.79 (controls 1 of 18).
KLTNVTGTEKVIGNNVA | EMETRER | QQYNRLPLA: 0.25, 0.15, 0.18, -0.28, -0.04, 0.03 (controls 1 of 18).
TIGAQLMYGMRNRSNVA | EVSQRLN | QQYDRLPLL: 0.83, 1.01, 1.46, 0.79, 0.89, 1.36 (controls 3 of 18).
MISQLYNMGSFAINSVA | QASIRNS | QQYDRLPLI: 1.57, 0.58, 0.99, 1.45, 0.92, 1.15 (controls 0 of 18).
KISQMVRVGSTASNSIA | EEVTRAK | QQYHRLPLA: 0.61, 0.58, 0.31, 0.32, 0.63, 0.66 (controls 1 of 18).
MISQLMNMGTFAINSVA | QAEIRNA | QQYDRLPLI: 0.66, 0.32, 0.44, 0.62, 0.45, 0.41 (controls 0 of 18).
MISQLYNMGQFAINSVA | QASTRNA | QQYDRLPLI: 1.25, 1.16, 0.90, 1.09, 1.13, 1.35 (controls 1 of 18).
KLSMVTGHMSMAKNNVA | EMETREK | QQYNRLPLS: 0.10, -0.04, -0.15, -0.25, -0.04, -0.07 (controls 3 of 18).
TIGQSLMQGIRNRSNVA | EVSQRLN | QQYDRLPLE: 1.63, 1.60, 1.55, 1.29, 2.04, 1.76 (controls 1 of 18).
MISQLFNMGQFAINSVA | QASTRNE | QQYDRLPLV: ND, ND, ND, ND, -0.32, -0.09 (controls 0 of 18).
KIGMTLNQLMHQKNNVA | DLVMREM | QQYHRLPLS: 3.73, 1.63, ND, 1.90, ND, 2.39 (controls 2 of 18).
TISQVMNTLTRHGNNVA | DLQNREN | QQYFRLPLS: 0.55, 0.57, 0.69, 0.67, 0.57, 1.02 (controls 0 of 18).
MLSEVLHMLGVKKNSIA | DLVLRAN | QQYHRLPLS: ND, ND, ND, ND, ND, 1.17 (controls 0 of 18).
KISMTSENSLKNRNSVA | ELVTRMA | QQYNRLPLS: 0.50, 0.42, 0.29, 0.55, 0.61, 0.47 (controls 0 of 18).
KLSMTTEMEHVNRNSVA | ELVTRIS | QQYNRLPLS: 1.10, 1.00, 1.23, 1.18, 1.76, 0.61 (controls 0 of 18).
TLYGLSLSMSKNKNNVA | EMTTREK | QQYDRLPLI: 0.37, 0.58, 0.52, 0.39, 0.59, 0.66 (controls 3 of 18).
TISQLYNMGQFAINSVA | QASQRNA | QQYDRLPLI: 1.35, 1.57, 1.06, 1.19, 1.66, 1.16 (controls 0 of 18).
MVNGIMDHLSKNSNNVA | ETETRNA | QQYDRLPLS: 0.91, 1.18, 0.84, 1.65, 0.14, 1.14 (controls 0 of 18).
MISQLMNLGQFAINSVA | QATIRNS | QQYDRLPLA: 2.01, 1.90, 2.38, 2.76, 2.54, 1.81 (controls 2 of 18).

Top 3 of the variants detected in all replicates, tightest first:

CDR-L1,CDR-L2,CDR-L3,"log10 Kd, replicates",signal with controls
SISGFMKSSLAHHNSVA,DMTNRED,QQYDRLPLS,"-0.31, -0.25, -0.02, -0.22, 0.06, -0.25",0/18
KLSMVTGHMSMAKNNVA,EMETREK,QQYNRLPLS,"0.10, -0.04, -0.15, -0.25, -0.04, -0.07",3/18
TISDVMGHMSKQTNNVA,DMDTRGE,QQYNRLPLS,"0.14, -0.06, -0.11, -0.20, -0.05, 0.03",1/18

Data: MIT Lincoln Laboratory AlphaSeq set, Li et al. 2023, doi:10.1038/s41467-023-39022-2, as distributed in FLAb.